Consider 3 compounds from PubChem BioAssay AID463079 (The Scripps Research Institute Molecular Screening Center, 2010).

By inhibition is commonly meant the drop in the measured response relative to a control, in per cent.

This is a selection; strong and weak results do not stand in their true shares. The source made the active and inactive calls.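 How the source made its calls: active means inhibition above that plate's mean sample inhibition plus 3 SD (cut at about 26% in these data); inactive means the rest.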

The nature of the assay: nonselective Gq signaling inhibition in CHO cells – cell-based, fluorescence, Fluo-8 calcium dye, counter-screen for OX1R antagonist project, primary screen (AID 463079).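 Further: 0% = ATP-challenged DMSO wells and 100% = DMSO wells without ATP.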 As to conditions: parental CHO-K1, ATP-induced calcium, Fluo-8 fluorescence; at 5.6 µM; active compounds read high. For orientation: A counterscreen serves to expose hits that act by an unwanted route or on another target.
Turning to `CCC(=O)N(c1ccccc1)C1(COC)CCN(CCc2cccs2)CC1`, the inhibition is inactive: -21.4%.
The result for `CCC(=O)N(c1ccccc1)C1(COC)CCN(CCn2nnn(CC)c2=O)CC1` reads inactive: -3.86%; that for `CCC(=O)N(c1ccccc1)C1CCN(CCc2ccccc2)CC1`, inactive: -17.3%.
